Test results: patent publication US7235366B1, “Methods of identifying agonists and antagonists of opioid receptors” (priority 1993, dated 2007)

By UniProt entry, the sequences of proteins in these tests, tags left out.
UniProt P35377, whole entry: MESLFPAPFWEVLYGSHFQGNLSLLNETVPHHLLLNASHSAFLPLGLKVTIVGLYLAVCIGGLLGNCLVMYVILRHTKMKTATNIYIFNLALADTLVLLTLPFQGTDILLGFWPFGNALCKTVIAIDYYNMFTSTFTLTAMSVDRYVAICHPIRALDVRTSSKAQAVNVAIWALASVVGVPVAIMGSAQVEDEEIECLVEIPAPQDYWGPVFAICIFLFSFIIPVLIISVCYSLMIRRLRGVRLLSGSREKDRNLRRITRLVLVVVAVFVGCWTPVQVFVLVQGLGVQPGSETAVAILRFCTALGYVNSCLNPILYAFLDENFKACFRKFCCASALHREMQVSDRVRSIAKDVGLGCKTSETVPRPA

Target: MOP2 (Mus musculus, UniProt P35377)
Assay: Forskolin stimulated cAMP accumulation in COS-7 cells expressing MOP2
Assay type: cell-based
Details: agonists 100 nM; naloxonazine 1 μM

Compound	Block of the effects of etorphine and lofentanil on cAMP, MOP2
C=CCN1CC[C@]23c4c5ccc(O)c4O[C@H]2/C(=N/N=C2\CC[C@@]4(O)[C@H]6Cc7ccc(O)c8c7[C@@]4(CCN6CC=C)[C@H]2O8)CC[C@@]3(O)[C@H]1C5	completely blocked
β-funaltrexamine	partially blocked
